Data from PubChem BioAssay AID463141 (The Scripps Research Institute Molecular Screening Center, 2010).
The list shows a part of the results, in another mix than the full data. Calls of active or inactive are those of the source.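 The calls were made as follows: active = activation above the mean of all tested compounds plus 3 SD (cut at about 21% in these data); inactive = the rest.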

Protein sequences, listed by entry. Tags and fused reporters are not part of them.
UniProt P42574, whole entry D9A/D28A/D175A: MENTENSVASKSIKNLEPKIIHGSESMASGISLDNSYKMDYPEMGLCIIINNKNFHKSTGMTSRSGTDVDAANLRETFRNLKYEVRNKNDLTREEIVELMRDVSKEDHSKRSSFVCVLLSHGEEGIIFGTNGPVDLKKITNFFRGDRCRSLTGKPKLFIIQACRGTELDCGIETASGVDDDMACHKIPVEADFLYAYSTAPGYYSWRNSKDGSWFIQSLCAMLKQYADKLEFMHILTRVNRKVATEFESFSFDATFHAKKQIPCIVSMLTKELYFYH

Molecular target: Caspase-3 (Homo sapiens) (UniProt P42574)
Assay: activators of human procaspase-3 D3A mutant, primary screen, biochemical, absorbance, PC-3 D3A mutant, single concentration (AID 463141);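 also: 0% = DMSO alone and 100% = DMSO wells spiked with extra 5 µM PC-3 D3A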
Settings: recombinant procaspase-3 D3A, Ac-DEVD-pNA absorbance 405 nm; at 8.5 µM; hits give high values

Row | SMILES | activation
1 | CP(=O)(Nc1ccc(Cl)cc1)Oc1ccc(F)cc1 (configuration not stated) | inactive: -2.49%
2 | COc1ccccc1OP(C)(=O)Nc1ccccc1Br (configuration not stated) | inactive: -4.39%
3 | CC(C)(C)c1ccc(OP(C)(=O)O)cc1 | inactive: -4.66%
4 | CP(=O)(OC12CC3CC(CC(C3)C1)C2)OC12CC3CC(CC(C3)C1)C2 | inactive: 6.17%
5 | CCOC(=O)c1ccc(NP(C)(=O)Oc2ccc(Cl)cc2)cc1 (configuration not stated) | inactive: -12.1%
6 | Nc1ccc2c(ccc3cccnc32)n1.O=[N+]([O-])c1cc([N+](=O)[O-])c(O)c([N+](=O)[O-])c1 | inactive: -6.24%
7 | COc1ccc(OP(C)(=O)Nc2ccccc2Br)cc1 (configuration not stated) | inactive: 9.15%
8 | COc1ccccc1OP(C)(=O)Nc1ccc(C)c(C)c1 (configuration not stated) | inactive: -2.31%
9 | Cc1cc(C)cc(OP(C)(=O)Nc2cccc(C(F)(F)F)c2)c1 (configuration not stated) | inactive: -10.6%
10 | CP(=O)(Nc1ccc(Cl)cc1Cl)Oc1ccccc1 (configuration not stated) | inactive: 6%
11 | CP(=O)(OCCOc1ccccc1)OCCOc1ccccc1 | inactive: 13.2%
12 | Cc1nc2ccc3ccccc3c2o1.O=[N+]([O-])c1cc([N+](=O)[O-])c(O)c([N+](=O)[O-])c1 | inactive: 6.16%
13 | CN(C)CCOC(=O)C(O)(c1ccccc1)C1CCCC1 (configuration not stated) | inactive: 4.44%
14 | COc1ccc(OP(C)(=O)Nc2ccccn2)cc1 (configuration not stated) | inactive: 14.2%
15 | COc1ccccc1OP(C)(=O)Nc1ccc(Br)cc1 (configuration not stated) | inactive: 8.6%
16 | CCc1ccc(OP(C)(=O)O)cc1 | inactive: -9.76%
17 | COc1ccccc1OP(C)(=O)Nc1ccc(C)cc1C (configuration not stated) | inactive: -0.7%
18 | CP(=O)(Nc1ccccn1)Oc1ccccc1 (configuration not stated) | inactive: 0.9%
19 | Cc1c(NP(C)(=O)Oc2ccc(C(C)C)cc2)c(=O)n(-c2ccccc2)n1C (configuration not stated) | inactive: 0.97%
20 | O=[N+]([O-])c1cc([N+](=O)[O-])c(Nc2ccccn2)c([N+](=O)[O-])c1 | inactive: -7.68%
21 | CCN(CC)CCCOC(=O)C(O)(c1ccccc1)c1ccccc1 | inactive: 10.8%
22 | Cc1cccc(C)c1OP(C)(N)=O (configuration not stated) | inactive: -2.48%
23 | CC(C)(C)c1ccc(OP(C)(=O)Nc2ccc(SC(F)(F)F)cc2)cc1 (configuration not stated) | inactive: -5.85%
24 | O=[N+]([O-])c1ccc2c(c1)C=Nc1ccccc1O2 | inactive: 1.47%
25 | O=[N+]([O-])c1cc([N+](=O)[O-])c(Nc2cccnc2)c([N+](=O)[O-])c1 | inactive: -1.66%
26 | COc1ccc(OP(C)(=O)Nc2cccc(F)c2)cc1 (configuration not stated) | inactive: -6.63%
27 | COc1ccccc1OP(C)(=O)Nc1cc(Cl)ccc1C (configuration not stated) | inactive: 3.81%
